Assay results reported in patent US4590178A (Ajinomoto Company, Incorporated, priority 1982, dated 1986).

## Dibenzylphosphoryl-L-alanyl-L-prolyl-L-proline L-arginine salt [Example 1]
rat
  Median lethal dose (LD50): more than 15 g/kg
mouse
  Median lethal dose (LD50): more than 15 g/kg
